Like-named read-outs stand apart in the source and are kept apart here.
Target: GLP-1R (Homo sapiens (Human), UniProt P43220)
Assay: GLP-1R activation: cAMP increase in CHO cells stably expressing GLP-1R
Assay type: cell-based
Settings: 10 point dose response, 30 minutes incubation at 37° C.
Description: GLP-1R activation by a compound of the present disclosure was quantified by measuring cAMP increase in CHO cells stably expressing GLP-1R (MultiSpan product #C1267-1a). […] The cells were then incubated overnight at 37° C., 5% CO2. […] 1% BSA (Rockland Immunochemicals product #BSA-1000)). Following the medium change, the cells were incubated for 1 hour at 37° C., 5% CO2. The tested GLP-1 compound was added to the cells in a 10 point dose response followed by a 30 minutes incubation at 37° C., 5% CO2. cAMP concentration increase was then detected using Cisbio's cAMP Gs Dynamic Kit (product #62AM4PEC) according to the manufacturer's protocol. The response was plotted against the log of the agonist concentration and fitted to a sigmoidal equation to determine the EC50.

Protein sequences, listed by entry. Tags and fused reporters are not part of them. Residues count along the entry.
UniProt P43220, 24-463: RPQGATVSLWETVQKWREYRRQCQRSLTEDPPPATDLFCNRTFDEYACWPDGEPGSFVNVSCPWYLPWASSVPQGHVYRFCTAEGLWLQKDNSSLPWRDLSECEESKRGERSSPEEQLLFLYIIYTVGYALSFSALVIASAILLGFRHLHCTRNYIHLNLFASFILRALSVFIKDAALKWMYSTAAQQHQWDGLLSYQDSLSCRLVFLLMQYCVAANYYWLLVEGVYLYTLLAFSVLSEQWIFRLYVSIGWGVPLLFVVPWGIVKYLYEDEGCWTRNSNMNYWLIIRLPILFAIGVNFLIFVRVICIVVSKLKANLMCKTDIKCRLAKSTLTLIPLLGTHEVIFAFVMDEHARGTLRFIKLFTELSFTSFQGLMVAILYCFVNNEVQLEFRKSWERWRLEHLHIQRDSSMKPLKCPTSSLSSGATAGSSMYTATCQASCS

Row | SMILES | EC50 (cAMP increase, read-out: EC50) | EC50 (EC50, cAMP increase)
1 | COCCn1c(Cc2cc(F)c(-c3cccc4c3OC(C)(c3ccc(Cl)cc3F)O4)cc2F)nc2ccc(C(=O)O)cc21 (centres unmarked) [Example 113, 2-[[4-[2-(4-chloro-2-fluoro-phenyl)-2-methyl-1,3-benzodioxol-4-yl]-2,5-difluoro-phenyl]methyl]-3-(2-methoxyethyl) benzimidazole-5-carboxylic acid] | 2.8 nM | 
2 | COCCn1c(Cc2cc(F)c(-c3cccc4c3OC(C)(c3ccc(Cl)cn3)O4)cc2F)nc2ccc(C(=O)O)cc21 (centres unmarked) [Example 114, 2-[[4-[2-(5-chloro-2-pyridyl)-2-methyl-1,3-benzodioxol-4-yl]-2,5-difluoro-phenyl]methyl]-3-(2-methoxyethyl) benzimidazole-5-carboxylic acid] |  | 11 nM
